Assay results taken from US8715737B2, “Method to make porous materials and their applications” (priority 2010, dated 2014).

How the values were obtained:
[1] = system: Breast Cancer Model (BT-474); experiment: Breast cancer model (BT-474) in nude mice; assay type: in vivo; details: for Tumor Volume Day 40 after Treatment Started: Trastuzumab 1 mg/kg i.v. weekly, Y-90-Trastuzumab 100 μCi i.v. once, porous material 600 μCi locally once; for Day Mice survived after Treatment Started: day by which all mice euthanized: mouse euthanized when tumor volume reached 2 cm3
Procedure: A mouse with a tumor size of about 0.125 cm3 size was randomly assigned to either a control group or a treated group. There were four groups: PBS control, unmodified antibody (Trastuzumab), Y-90-Trastuzumab and Y-90-dendrimer porous material treated group. Each group was fifteen mice. Each tumor size had been measured every three days since treatments started. When the tumor volume reached 2 cm3, the tumor bearing mouse was euthanized. Unmodified Trastuzumab was given i.v. at the dose of 1 mg/kg every weekly for whole experiment period. A 100 μCi of Y-90 labeled Trastuzumab was given i.v. at once (maximal tolerant dose) and a 600 μCi of Y-90-dendrimer porous material was given locally once.

[2] = system: Colorectal Cancer Model (HT-29); experiment: Colorectal cancer model (HT-29) in nude mice; assay type: in vivo; details: for Tumor Volume Day 50 after Treatment Started: cetuximab 1 mg/kg i.v. weekly, Y-90-cetuximab 100 μCi i.v. once, porous material 600 μCi locally once; for Day Mice survived after Treatment Started: day by which all mice euthanized: mouse euthanized when tumor volume reached 2 cm3
Procedure: A mouse with a tumor size of about 0.125 cm3 size was randomly assigned to either a control group or a treated group. There were four groups: PBS control, unmodified antibody (cetuximab), Y-90-cetuximab and Y-90-chitosa porous material treated group. Each group was fifteen mice. Each tumor size had been measured every three days since treatments started. When the tumor volume reached 2 cm3, the tumor bearing mouse was euthanized. Unmodified cetuximab was given i.v. at the dose of 1 mg/kg every weekly for whole experiment period. 100 μCi of Y-90 labeled cetuximab was given i.v. once (maximal tolerated dose of radiolabeled antibody) and 600 μCi of Y-90-chitosan porous material was given locally once.

| Substance | Tumor Volume Day 40 after Treatment Started [1] [cm^3] | Day Mice survived after Treatment Started: day by which all mice euthanized [1] | Tumor Volume Day 50 after Treatment Started [2] [cm^3] | Day Mice survived after Treatment Started: day by which all mice euthanized [2] |
| --- | --- | --- | --- | --- |
| Trastuzumab [Unmodified Trastuzumab] | 1.75 ± 0.49 | by day 47 | – | – |
| Y-90- Cetuximab: Y-90 labeled cetuximab, radiolabeled antibody | – | – | 1.70 ± 0.41 | by day 73 |
| Y-90-Trastuzumab: Y-90 labeled Trastuzumab, radiolabeled antibody | 1.70 ± 0.41 | by day 50 | – | – |
| cetuximab [Unmodified Cetuximab] | – | – | 1.75 ± 0.49 | by day 69 |
